# Tests used:
# The chains behind the UniProt entries cited, without tags or fusion partners.
# UniProt P34972, whole entry: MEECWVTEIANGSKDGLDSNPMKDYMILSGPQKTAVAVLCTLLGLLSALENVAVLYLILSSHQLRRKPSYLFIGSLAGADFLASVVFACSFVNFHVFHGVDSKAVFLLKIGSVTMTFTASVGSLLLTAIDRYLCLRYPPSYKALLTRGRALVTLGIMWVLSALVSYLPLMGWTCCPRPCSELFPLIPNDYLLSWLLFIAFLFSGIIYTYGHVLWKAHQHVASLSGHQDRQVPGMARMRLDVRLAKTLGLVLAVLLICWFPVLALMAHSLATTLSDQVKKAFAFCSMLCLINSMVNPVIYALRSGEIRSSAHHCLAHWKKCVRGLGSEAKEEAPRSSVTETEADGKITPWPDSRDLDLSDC
# CNR2 (also known as CB2) [1] = target: T1, CNR2 (also known as CB2) (Homo sapiens, UniProt P34972); assay: cAMP competitive inhibition immunoassay (HitHunter), CNR2; format: cell-based
# CNR2 (also known as CB2) [2] = target: T1, CNR2 (also known as CB2); assay: β-arrestin GPCR assay (PathHunter), CNR2; format: cell-based; set-up: β-galactosidase enzyme fragment (complementation partner)
smiles,measurement,setting,value
"C=C(C)[C@@H]1CCC(C)=C[C@H]1c1c(O)cc(CCCCC)cc1O [CBD, cannabidiol]",EC50,CNR2 (also known as CB2) [1],> 16.7 µM
same,EC50,CNR2 (also known as CB2) [2],> 16.7 µM

# Source: patent US10940173B2, “Cannabis oil extracts and compositions” (priority 2015, dated 2021)
